## Antibody variant affinities, Ab-14 heavy chain, assay B

Data: MIT Lincoln Laboratory AlphaSeq set, Li et al. 2023, doi:10.1038/s41467-023-39022-2, as distributed in FLAb.

Binding partner: SARS-CoV-2 spike HR2 peptide, sequence PDVDLGDISGINAS.

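The starting antibody came from a phage panning campaign against this peptide. These sequences belong to a second round, designed from the earlier measurements on random variants of the parent. Several design methods are mixed in this list. AlphaSeq pools MATa yeast showing the antibodies with MATalpha yeast showing the peptide. Binding brings cells together so that they mate, and sequencing counts the barcode pairs among the diploids. Scores were corrected for input abundance and mapped to Kd with protein pairs of known affinity run in the same pool. There are six technical replicates.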

Parent: Ab-14, a human scFv built as VH, a 15-residue (Gly4Ser)3 linker, VL. Only the CDRs of the heavy chain vary.
VH: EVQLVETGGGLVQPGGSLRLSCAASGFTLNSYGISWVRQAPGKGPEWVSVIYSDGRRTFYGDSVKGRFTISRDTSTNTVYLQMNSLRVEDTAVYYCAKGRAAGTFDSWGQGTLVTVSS
VL: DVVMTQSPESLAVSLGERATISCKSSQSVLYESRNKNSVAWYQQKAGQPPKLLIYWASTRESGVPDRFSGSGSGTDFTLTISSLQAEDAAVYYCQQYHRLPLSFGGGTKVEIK

Each variant is given by its three heavy chain CDRs, as the data file delimits them; those of the parent are GFTLNSYGIS, VIYSDGRRTFYGDSVK, GRAAGTFDS.
This list holds designs with at most six substitutions.
Values are log10 of the apparent Kd in nM; lower means stronger binding.
"nd" means that the variant was in the library but no mating with the target was seen in that replicate; the authors take this as a sign of poor binding, and no number exists.
As a blank, each scFv also met three strains without target: over all heavy chain designs, 1% of these pairings were detected, typically at 2.08 and seldom below 0.84. The control count says in how many pairings with the empty strains this scFv gave a signal.

With GFSLNSYGIS / VIYSDGRRTFYGDSVK / GEAAGTFDN the result was 0.35, 0.31, 0.21, 0.16, 0.22, 0.51 (controls 0 of 18). The variant GFTLNSYGIS / VIYSDGRRTFYGDSVK / CYAAGTFDS showed nd, nd, nd, nd, nd, nd (controls 0 of 18). With GFTLQSYGIS / VIYSDGRRTFYGDSVK / GRAAGTFWS the result was nd, nd, nd, nd, nd, nd (controls 0 of 18). The variant GFDLNSYGIS / VIYSDGRRTFYGDQVK / GRAAGTFDS showed 0.19, 0.43, 0.24, 0.47, 0.34, 0.21 (controls 0 of 18). For GFSLNSYGIS / VIYSDGRRTFYTDSVK / GWTAGTFDS, the assay gave 0.17, 0.34, 0.01, 0.76, 0.34, 0.87 (controls 2 of 18).

With GFQLNEYGIS / VIYSDGRRTFYGDSVK / GRIAGTFIS the result was nd, nd, nd, nd, nd, nd (controls 0 of 18). The variant GFTLNSYGIS / VIYSDGRRTFYSDSVK / GHAAGTFDS showed 0.73, 0.58, 0.31, 0.43, 0.23, 0.78 (controls 2 of 18). For GFSLNSYGIS / VIYSDGRRTFYSDKVK / GRTAGTFDS, the assay gave -0.23, -0.13, -0.42, 1.43, 0.71, 0.19 (controls 0 of 18). The variant GFNLNKWGIS / VIYSDGRRTFYAISVK / GRAAGLFDS gave nd, nd, nd, nd, nd, nd (controls 0 of 18). For GFSLNSYGIS / VIYSDGRRTAYGDSVK / GRVAGTFDS, the assay gave -0.47, 0.18, -0.24, 0.29, -0.92, 1.28 (controls 0 of 18).

With GFELNSYGIS / VIYSDGRRTFYIDSVK / GNAAGTFDS the result was 0.38, 0.30, 0.30, 0.18, -0.10, 0.42 (controls 0 of 18). With GFTLNDYGIS / VIYSDGRRTFYHDSVK / GRVAGTFDS the result was -0.11, 0.10, 0.19, 0.16, 0.27, 0.34 (controls 1 of 18). For GFELNSYGIS / VIYSDGRRTFYCDAVK / GKTAGTFDS, the assay gave 1.15, 0.81, 1.40, 1.28, 1.29, 1.13 (controls 1 of 18). For GFDLDEYGIS / VIYADGRRTFYSDSVK / GEAAGTFDS, the assay gave -1.23, -0.65, 0.01, -0.22, -0.77, -0.81 (controls 0 of 18). With GFTLNEYGIS / VIYPDGRRTFYTDSVK / GRAAGTFDS the result was 1.98, 1.69, 1.43, 1.51, 1.31, 1.54 (controls 0 of 18).

With GFDLNEYGIS / VIYSDGRRTFYMDSVK / GRTAGTFDS the result was 2.07, 0.56, 0.69, 0.51, 0.70, 0.65 (controls 0 of 18). The variant GFTLNSYGIS / VIYSDGMRTFYSDSVK / GRSAGTFDS showed -0.04, 0.41, 0.18, 0.00, -0.25, 0.41 (controls 1 of 18). With GFTLKSYGIS / VIYADGRRTFYGDSVK / GRAAGTFNL the result was 1.47, 2.30, 1.70, nd, 2.40, 2.10 (controls 2 of 18). For GFTLNSYGIS / VIYADGRRTFYGDSVK / GRAAGTFDA, the assay gave 1.29, 0.65, 0.63, 0.55, 0.31, 1.16 (controls 0 of 18). The variant GFSLNSYGIS / VIYSDGRRTFYVDSVK / GGVAGTFDS showed 0.57, 0.70, 1.41, 1.12, 0.32, 1.30 (controls 0 of 18).

For GFDLNSYGIS / VIYSDGKRTFYGDSVK / GRSAGTFDS, the assay gave 0.62, 0.60, nd, 1.27, 0.71, 0.87 (controls 0 of 18). For GFWLNEYGIS / VIYSDGRRTFYGDSVK / GRTAGTFDA, the assay gave 1.59, 1.19, 1.25, 1.38, 1.25, 1.04 (controls 1 of 18). The variant GFDLNSYGIS / VIYSDGRRTFYGDSVK / GRAAGTFES showed nd, 2.28, nd, 1.87, 1.67, 1.32 (controls 1 of 18). For GFALNSYGIS / VIYSDGRRTFYGDSVK / GRAGWTFDS, the assay gave nd, nd, nd, nd, nd, nd (controls 1 of 18). The variant GFTLNEYGIS / VIYSDGKRTQYADSVK / GRAAGTFDS gave 0.69, 0.45, 0.51, 0.22, 0.43, 0.97 (controls 0 of 18).

With GFTLNQYGIS / VIYSDGRRTFYADSVK / GRAAGKFDS the result was nd, 1.48, 1.23, nd, 1.40, nd (controls 0 of 18). The variant GFTLNSYGIS / VIYSDGRRTFYGDSVK / GRAGGTFDM gave nd, 1.90, nd, nd, nd, 1.50 (controls 0 of 18). With GFTLNSYGIS / VIYSDGKRTFYADSVK / GRAAGTFDT the result was 0.32, 0.90, 1.74, 0.53, 0.87, 0.50 (controls 1 of 18). For GFTLNSYGIS / VIYSDGLRTFYSDSVK / GNAAGTFDS, the assay gave 0.34, 0.32, 0.06, 0.18, 0.77, 0.57 (controls 3 of 18). The variant GFSLNSYGIS / VIYSDGRRTFYADKVK / GRAAGTFDS gave 0.78, 0.74, 0.59, 0.67, 0.72, 0.83 (controls 0 of 18).

With GFSLNSYGIS / VIYSDGRRTAYGDSVK / GRAAGTFDT the result was 0.30, 0.01, -0.26, -0.06, 0.00, -0.04 (controls 0 of 18). With GFTLNEYGIS / VIYSDGRRTFYADSVK / GRAAGTFMS the result was nd, nd, nd, nd, nd, nd (controls 0 of 18). The variant GATLNSYGIS / VIYSDGRRTFYGDSVK / GMAAGTFDS showed 0.64, 0.79, 0.50, 0.23, 1.03, 1.96 (controls 0 of 18). The variant GFQLNDYGIS / VIYSDGRRTFYGDSVK / GKTAGTFDS showed 0.59, 1.23, 0.08, 0.46, 0.31, 1.00 (controls 0 of 18). The variant GFELNSYGIS / VIYSDGRRTFYQDSVK / GRMAGTFDT showed 1.19, 0.64, 0.97, 0.45, nd, 0.87 (controls 0 of 18).

The variant GDTLNSYGIS / VIYSDGRRTFYRDSVK / VRCAGFFDS showed nd, nd, nd, nd, nd, nd (controls 0 of 18).

A selection of 4 entries from above:

| CDR-H1 | CDR-H2 | CDR-H3 | log10 Kd (nM) by replicate | signal with controls |
|---|---|---|---|---|
| GFSLNSYGIS | VIYSDGRRTFYSDKVK | GRTAGTFDS | -0.23, -0.13, -0.42, 1.43, 0.71, 0.19 | 0/18 |
| GFELNSYGIS | VIYSDGRRTFYQDSVK | GRMAGTFDT | 1.19, 0.64, 0.97, 0.45, nd, 0.87 | 0/18 |
| GFSLNSYGIS | VIYSDGRRTAYGDSVK | GRAAGTFDT | 0.30, 0.01, -0.26, -0.06, 0.00, -0.04 | 0/18 |
| GFTLQSYGIS | VIYSDGRRTFYGDSVK | GRAAGTFWS | nd, nd, nd, nd, nd, nd | 0/18 |

The parent sequence was in this pool as ten entries: three were never detected, three once, and four in most replicates, with averages from 0.34 to 2.37.
A sequence measured in both rounds can read differently, since the two assays cover different ranges.
The authors averaged sequences with at least three values out of six and counted those with two or fewer as poor binders.